Source: publication PMC9415951 (Viruses, 2022)

Target: bovine thrombin (Bos taurus, UniProt P00735)
Assay: Thrombin inhibition assay (chromogenic substrate S-2238)
Format: biochemical
Conditions: time-dependent inhibition

N=C(N)N1CCC(C(=O)Nc2cccc(OCc3cc(-c4ccc(Cl)s4)on3)c2)CC1 [Compound 3]
Ki (incubation time 0 min): 15.96 ± 0.04 µM
Ki (incubation time 15 min): 16.7 ± 0.017 µM
